The values that follow come from patent US9757455B2, “Oral therapeutic compound delivery system” (Johnson & Johnson Consumer Inc., priority 2005, dated 2017).

A short description of the series: Solubility in water.

Take `CC(C)Cc1ccc(C(C)C(=O)O)cc1` (centres unmarked) [Ibuprofen]: the “amount of ibuprofen that 200 mL water would dissolve” value (at pH in the range 6.3-6.8) is 826 mg.
For the compound `O=C1Nc2ccc(Cl)cc2C(c2ccccc2Cl)=NC1O` (centres unmarked) [Lorazepam], the “Volume (mL) of water to dissolve dose” value (dose (mg) of each drug as in Table 78) is 31 mL.
